This series in a line: GuHCl denaturation monitored by circular dichroism at 222 nM. Particulars: CD at 222 nM, two-state, relative to MDMX. It counts as physicochemical. (In general: Circular dichroism is the unequal absorption of left and right circularly polarised light.)

B1: pTyr99 MDMX: chemically synthesized Tyr99-phosphorylated (24–108) MDMX (protein)
chain: INQVRPKLPLLKILHAAGAQGEMFTVKEVMHYLGQYIMVKQLYDQQEQHMVYCGGDLLGELLGRQSFSVKDPSPLYDMLRKNLVT
modifications: phosphotyrosine at 99
With B1, the “stabilization of the protein by phosphorylation at Tyr99” value is given as 0.3 kcal/mol.

(Values after PMC5470632 (Oncogene, 2015).)
